Test results reported in US10202373B2, “Heteroaryls and uses thereof” (MILLENNIUM PHARMACEUTICALS, INC., priority 2014, dated 2019).
pIC50: −log10 of the molar value.

The chains behind the UniProt entries cited, without tags or fusion partners.
UniProt Q8NEB9, whole entry: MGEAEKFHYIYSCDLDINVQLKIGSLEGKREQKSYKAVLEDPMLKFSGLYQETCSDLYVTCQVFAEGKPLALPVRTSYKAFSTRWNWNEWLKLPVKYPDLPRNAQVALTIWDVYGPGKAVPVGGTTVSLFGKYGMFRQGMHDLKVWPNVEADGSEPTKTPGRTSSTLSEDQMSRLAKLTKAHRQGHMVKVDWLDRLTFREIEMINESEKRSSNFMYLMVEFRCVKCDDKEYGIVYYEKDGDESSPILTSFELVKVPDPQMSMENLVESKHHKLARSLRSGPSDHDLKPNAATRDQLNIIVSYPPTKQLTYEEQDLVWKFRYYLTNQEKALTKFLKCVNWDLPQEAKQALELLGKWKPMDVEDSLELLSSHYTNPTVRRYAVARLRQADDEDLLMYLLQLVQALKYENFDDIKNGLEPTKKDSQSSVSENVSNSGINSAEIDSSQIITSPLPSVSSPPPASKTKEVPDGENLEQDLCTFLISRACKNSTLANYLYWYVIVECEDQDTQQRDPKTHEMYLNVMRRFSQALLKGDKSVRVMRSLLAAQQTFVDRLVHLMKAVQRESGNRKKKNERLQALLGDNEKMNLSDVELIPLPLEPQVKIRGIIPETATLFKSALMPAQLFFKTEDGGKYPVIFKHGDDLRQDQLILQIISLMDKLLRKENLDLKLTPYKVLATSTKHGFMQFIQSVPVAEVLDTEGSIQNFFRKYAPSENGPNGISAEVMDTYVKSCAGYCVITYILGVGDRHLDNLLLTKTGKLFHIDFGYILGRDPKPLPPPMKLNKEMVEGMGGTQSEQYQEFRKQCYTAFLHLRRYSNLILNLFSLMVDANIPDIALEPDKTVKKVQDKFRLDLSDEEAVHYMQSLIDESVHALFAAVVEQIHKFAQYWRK

Target: human VPS34 (Homo sapiens (Human), UniProt Q8NEB9)
Experiment: Human VPS34 enzyme assay (Adapta TR-FRET)
Type: biochemical
Experimental: VPS34 (accession number GB:BC033004) was cloned into pDEST20-Thombin as N-terminal GST tagged fusion proteins using the Gateway system (Invitrogen, catalog#11804-013). The sequences were verified before recombinant protein expression using the Baculovirus Expression System with Gateway® Technology. For expression VPS34 was infected at 1 MOI in SF9 cells and harvested 72 hours post infection. For purification, VPS34 is purified by Glutathione Sepharose 4 Fast Flow (GE Healthcare #17-5132-03) followed by HiTrap Q (GE Healthcare #17-1153-01). Human VPS34 Enzyme Assay Method 100 nL compounds in DMSO are added to wells of a 384 well microtitre plate (Greiner 780076). At room temperature: 5 ul VPS34 reaction buffer (Invitrogen Assay Buffer Q (diluted 1 in 5 with nanopure water) plus 2 mM DTT and 2 mM MnCl2) containing ATP (20 uM, Promega) and 200 uM PI-PS substrate (Invitrogen PV5122) is added followed immediately by 5 ul VPS34 reaction buffer (as above) containing VPS34 (5 nM, Millennium Protein Sciences Group) and the mixture is incubated with shaking at room temperature for 1 hour. […] The plates are then incubated for 30 minutes at room temperature with shaking and then read on a BMG PheraStar Plus reader. For the assay methods described above, test compound percent inhibition, at various concentrations, is calculated relative to control (DMSO and EDTA) treated samples. […]

CC(=O)Nc1cc(-c2cnc(C)c3[nH]ccc23)ccn1
pIC50 (human VPS34 enzyme assay, IC50 ranges): 7.00 to 7.30
Percent Inhibition (inhibition of VPS34 at a 1.11 μM concentration): >99%
